Data taken from US20060293223A1 (Eli Lilly and Company Patent Division, priority 2003, published 2006).
pKi: −log10 of the molar value.

By UniProt entry, the sequences of proteins in these tests, tags left out. Where a name states a change or a piece, a line headed by the entry shows the natural chain unless it says otherwise.
UniProt P41968: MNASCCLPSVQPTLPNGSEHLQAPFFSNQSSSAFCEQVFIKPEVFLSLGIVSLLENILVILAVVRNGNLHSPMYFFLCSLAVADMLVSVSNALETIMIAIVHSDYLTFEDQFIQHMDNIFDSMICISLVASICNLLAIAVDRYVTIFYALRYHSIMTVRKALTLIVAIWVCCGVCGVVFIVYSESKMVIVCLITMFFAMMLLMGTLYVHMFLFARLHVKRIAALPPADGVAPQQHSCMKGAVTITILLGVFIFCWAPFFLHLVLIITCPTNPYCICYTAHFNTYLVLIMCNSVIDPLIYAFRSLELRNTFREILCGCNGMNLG
UniProt P32245, whole entry: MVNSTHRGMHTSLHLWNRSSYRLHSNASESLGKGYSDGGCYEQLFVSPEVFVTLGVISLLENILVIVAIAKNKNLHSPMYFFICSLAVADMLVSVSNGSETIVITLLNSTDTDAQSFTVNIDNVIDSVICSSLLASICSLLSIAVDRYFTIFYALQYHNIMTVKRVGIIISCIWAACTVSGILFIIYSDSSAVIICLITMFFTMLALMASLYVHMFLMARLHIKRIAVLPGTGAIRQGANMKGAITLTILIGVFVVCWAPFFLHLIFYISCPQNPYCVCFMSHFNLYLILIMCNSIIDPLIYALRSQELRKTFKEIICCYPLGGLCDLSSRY

Assays:
human MC3R = human MC3R (Homo sapiens, UniProt P41968); test: Melanocortin receptor whole cell cAMP accumulation assay, MC3 (Table 2, MC3 Potency, printed as Ki); type: cell-based
human MC4R = human MC4R (Homo sapiens, UniProt P32245); test: cell-based
MC1/MC4 = conditions: ratio MC1/MC4;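 further: ratio of EC50 values obtained at MC1 versus MC4 receptors, with MC1 potency measured by luciferase reporter activity in stably transfected cells expressing human MC1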

| Compound | pKi (human MC3R) | MC1/MC4 selectivity (MC1/MC4) | further results |
| --- | --- | --- | --- |
| N=C(N)NCCC[C@@H]1NC(=O)[C@@H](Cc2ccccc2)NC(=O)[C@H](Cc2c[nH]cn2)NC(=O)[C@H](CCC(=O)O)NC(=O)[C@@H](N)CSSC[C@@H](C(N)=O)NC(=O)[C@H](Cc2c[nH]c3ccccc23)NC1=O [Compound 29, cyclo[Cys-Glu-His-D-Phe-Arg-Trp-Cys]-NH2] | ≤ 6.30 | – | – |
| N=C(N)NCCC[C@@H]1NC(=O)[C@@H](Cc2ccccc2)NC(=O)[C@H](Cc2c[nH]cn2)NC(=O)[C@@H](N)CCSSC[C@@H](C(N)=O)NC(=O)[C@H](Cc2c[nH]c3ccccc23)NC1=O [Compound 132, cyclo[hCys-His-D-Phe-Arg-Trp-Cys]-NH2] | – | – | pKi (human MC4R): 9.47 |
| N=C(N)NCCC[C@@H]1NC(=O)[C@@H](Cc2ccc(F)cc2)NC(=O)[C@H](Cc2c[nH]cn2)NC(=O)[C@@H](N)CSSCC[C@@H](C(N)=O)NC(=O)[C@H](Cc2c[nH]c3ccccc23)NC1=O [Compound 181, cyclo[Cys-His-(4-F-D-Phe)-Arg-Trp-hCys]-NH2] | ≤ 6.30 | – | – |
| N=C(N)NCCC[C@@H]1NC(=O)[C@@H](Cc2ccccc2)NC(=O)[C@H](Cc2c[nH]cn2)NC(=O)[C@@H](NC(=O)[C@@H](N)CCCNC(=N)N)CCSSCC[C@@H](C(N)=O)NC(=O)[C@H](Cc2c[nH]c3ccccc23)NC1=O [Compound 194, Arg-cyclo[hCys-His-D-Phe-Arg-Trp-hCys]-NH2] | 7.38 | – | – |
| Ac-Arg-cyclo[hCys-His-D-Phe-Arg-Trp-hCys]-NH2 [Compound 195] | – | 32.56 | – |
| Ac-Tyr-Arg-cyclo[Cys-His-His-D-Phe-Arg-Trp-Cys]-NH2 [Compound 13] | – | 10.65 | – |
| Ac-cyclo[Cys-His-(4-F-D-Phe)-Arg-Trp-hCys]-NH2 [Compound 184] | – | 97.44 | – |
| Ac-cyclo[hCys-His-Phe-Arg-Trp-Cys]-NH2 [Compound 136] | – | 7.01 | – |
